Assay [1] relates to NCIH596. Description: Colony formation (CFU) assay, NCIH596. The format is cell-based. Particulars: NCIH596, lung; chemotherapy agent in combination with 300 nM Compound 1. As for the experimental part: (§1) In vitro experiments were conducted using the colony formation unit (CFU) assay on various cell lines. The CFU assay involved first establishing what cell plating density enabled the development of clearly interspersed colonies on a six-well plate when left to grow for around 14 days. […] At or around day 14 when clearly interspersed colonies were visible in the DMSO-treated wells, the cells were fixed and stained using 0.1% crystal violet in 10% ethanol for 20 minutes at room temperature. The plates were imaged then the amount of crystal violet stain in each well was quantified by extracting the crystal violet into 10% acetic acid and the absorbance measured at 565 nm.
(§2) For certain cell lines, multiple IC50 values were taken, and those are separated by commas. Synergy scores are in parentheticals.

The subject of assay [2] is SUM149PT. Put plainly: Colony formation (CFU) assay, SUM149PT. Format: cell-based. To be noted: breast, chemotherapy agent in combination with 300 nM Compound 1. The method, then: as §1, §2

Take `CO[C@@]12[C@H](COC(N)=O)C3=C(C(=O)C(C)=C(N)C3=O)N1C[C@@H]1N[C@@H]12` [Mito. C, mitomycin C]: the results for the synergy score result in assay [1] and in assay [2] were “(−1)” and “(1)”, respectively.

These data come from patent publication US20250213574A1, “THERAPEUTIC COMBINATIONS COMPRISING UBIQUITIN- SPECIFIC-PROCESSING PROTEASE 1 (USP1) INHIBITORS AND CHEMOTHERAPY AGENTS” (KSQ Therapeutics, Inc., priority 2022, published 2025).
